Assay results from patent US7291478B1.

Sequences of proteins named here, by UniProt entry; tags and fusion partners are left off.
UniProt Q45087, whole entry: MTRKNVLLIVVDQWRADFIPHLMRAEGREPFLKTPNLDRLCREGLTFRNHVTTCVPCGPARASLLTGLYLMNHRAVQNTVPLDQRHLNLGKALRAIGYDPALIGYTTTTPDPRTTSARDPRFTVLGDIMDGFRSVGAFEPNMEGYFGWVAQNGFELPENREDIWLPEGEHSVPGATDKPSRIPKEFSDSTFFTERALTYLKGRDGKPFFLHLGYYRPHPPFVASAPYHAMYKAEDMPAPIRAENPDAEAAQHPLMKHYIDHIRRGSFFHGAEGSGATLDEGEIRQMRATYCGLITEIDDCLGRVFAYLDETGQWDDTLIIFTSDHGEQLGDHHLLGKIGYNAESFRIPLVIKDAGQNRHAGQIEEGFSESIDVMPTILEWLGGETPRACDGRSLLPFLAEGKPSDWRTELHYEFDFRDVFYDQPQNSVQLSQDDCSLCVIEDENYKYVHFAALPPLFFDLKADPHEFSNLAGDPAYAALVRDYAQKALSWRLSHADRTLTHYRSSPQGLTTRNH

Biological target: phosphonate ester hydrolase (PEH) (Trinickia caryophylli, UniProt Q45087)
Details: synthetic phosphonate ester 10 mM, 50 mM BTP pH 9.0, 1 mM MnCl2, 2 μl PEH extract, about 30° C.; GC-FPD of TMS derivatives

## Pinacolyl phenylphosphonate
  Degraded by PEH: YES

This is a selection: effects in other tests are not listed, and their absence says nothing.
